Only a part is listed here, and it is no random draw. Some salts and complexes are drawn in separate pieces, as the source files them; their charges need not balance. Calls of active or inactive are those of the source.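 Rule for the calls: active = plate z-score of nuclear minus cytoplasmic receptor signal below a set negative limit, without overly bright fluorescence or cell loss (cut at about -3.5 in these data, passing the limit was not always enough); inactive = the rest, inconclusive results apart.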
Experiment: inhibitors of GR-EGFP nuclear translocation, primary screen, dynein cargo transport inhibitor project, imaging, high-content, 3617.4 mouse cells (AID 1381)
Settings: active compounds read low, stimulated with dexamethasone, 1 µM; at 20 µM unless noted

| SMILES | z-score |
| --- | --- |
| CCN(CC)CCCOC(=O)C(O)(c1ccccc1)C1CCCCC1 (stereo unspecified) | inactive: 0.297 [at 50 µM] |
| COC(=O)c1cc2c(s1)N=C(c1ccccc1)N(C)P2(=O)N1CCOCC1 (stereo unspecified) | inactive: -0.617 |
| CC(=O)NC(SC(=S)N(CC(C)C)CC(C)C)C(Cl)(Cl)Cl (stereo unspecified) | inactive: 1.06 |
| Cc1ccc(OP(=O)(Nc2ccccn2)Oc2ccc(C)cc2)cc1 | inactive: 1.67 |
| Cc1ccccc1OP(=O)(Nc1ccccn1)Oc1ccccc1C | inactive: -0.404 |
| CN(C)C(=O)Oc1noc2ccccc12 | inactive: -0.617 |
| CCCCCOc1ccc(NP(C)(=O)Oc2ccc(Cl)cc2Cl)cc1 (stereo unspecified) | inactive: 0.649 |
| CP(=O)(Nc1ccccc1)Oc1ccc(F)cc1 (stereo unspecified) | inactive: -1.09 [at 50 µM] |
| c1ccc(-c2nn[nH]n2)c(-c2nn[nH]n2)c1 | inactive: 1.53 |
| Cc1ccc(NP(=O)(Oc2cccc(C)c2)Oc2cccc(C)c2)nc1 | inactive: 0.581 |
| CCOC(=O)NC(Sc1ccccc1)C(Cl)(Cl)Cl (stereo unspecified) | inactive: -0.388 |
| O=C(NC1CCS(=O)(=O)C1)NP(=S)(Oc1ccccc1)Oc1ccccc1 (stereo unspecified) | inactive: -0.556 |
| CCNC(=S)/N=C(\N)N[N+](=O)[O-] | inactive: -0.278 |
| COc1ccc(OP(C)(=O)Nc2ccc(SC(F)(F)F)cc2)cc1 (stereo unspecified) | inactive: 0.0892 |
| CCOC(=O)c1ccc(NP(C)(=O)Oc2ccc(F)cc2)cc1 (stereo unspecified) | inactive: 0.303 |
| O=C(OCCN1CCN(CCOCc2ccccc2)CC1)C(O)(c1ccccc1)c1ccccc1 | inactive: 1.29 |
| C[C@@H]1C=CCP(=O)(Oc2ccccc2)O1 (stereo partly specified) | inactive: 0.99 |
| C[C@H]1OP(=O)(Oc2ccccc2)C[C@@H]2O[C@@H]21 (stereo partly specified) | inactive: -0.0115 |
| O=C(OC1CN2CCC1CC2)c1ccc([N+](=O)[O-])cc1 (stereo unspecified) | inactive: -0.469 |
| COc1ccc2c(c1O)-c1c(O)c(OC)cc3c1[C@H](C2)[N+](C)(C)CC3.O=[N+]([O-])c1cc([N+](=O)[O-])c([O-])c([N+](=O)[O-])c1[O-] | inactive: -0.405 |
| CC(=O)Nc1ccc([As](=O)(O)O)c(O)c1 | inactive: 1.26 |
| CC(=O)Nc1ccc(Oc2c([N+](=O)[O-])cc([N+](=O)[O-])cc2[N+](=O)[O-])cc1 | inactive: 0.52 |
| O=P1(Nc2nc3ccc(Cl)cc3s2)COc2ccccc2O1 (stereo unspecified) | inactive: 0.483 |
| CCOc1ccc(C2=NCC(CBr)S2)cc1 (stereo unspecified) | inactive: 2.01 |
| CC(C)(C)C(=O)NC(Sc1ccccc1)C(Cl)(Cl)Cl (stereo unspecified) | inactive: -0.872 |
| CC(C)c1ccc(OP(C)(=O)Nc2ccc(SC(F)(F)F)cc2)cc1 (stereo unspecified) | inactive: -0.033 |
